# Measured values as given in PubChem BioAssay AID2189 (The Scripps Research Institute Molecular Screening Center, 2009).
# This is a selection; strong and weak results do not stand in their true shares. Calls of active or inactive are those of the source. Rule as the data show it: active = inhibition above about 4.9%; inactive = the rest.
# System: metallo-beta-lactamase IMP-1 (Pseudomonas aeruginosa)
# Test: inhibition of IMP-1 substrate hydrolysis – biochemical, epi-absorbance, hits shared with VIM-2 screen, confirmation (AID 2189);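 also: 0% = enzyme with vehicle and 100% = vehicle without enzyme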
# Conditions: purified IMP-1 enzyme, at 5.6 µM, active compounds read high
structure (smiles),measurement,value
Nc1cccc2c([As](=O)(O)O)cccc12,inhibition,inactive: 3.32%
